According to patent US8916606B2, “Therapeutic compositions and methods for targeted delivery of active agents” (William Marsh Rice University, priority 2009, dated 2014):

Tested on: OSC19-Luc cells (EGFR+/GFP+)
Test: In vitro targeting, co-culture of OSC19-Luc and MCF-7 cells, bioluminescence
Format: cell-based
Conditions: EGFR+ and EGFR− cells co-cultured
From the text: To study the targeting effects of Cet/PTX/PEG-HCCs, OSC-19 cancer cells were first retrovirally infected with GFP and firefly luciferase gene as described in literature to form OSC19-Luc cells (EGFR^+/GFP^+). See Theodossis et al., Cancer Research 2005, 63, 1818-1821. Next, the OSC19-Luc cells were mixed with MCF-7 (EGFR^−/GFP^−) cancer cells and suspended in DMEM prior to the treatment.
Applicants envisioned that after treating cells with EGFR-targeted nanovectors, the bioluminescence intensity from luciferase could be quantified by using an IVIS 200 Imaging System (Xenogen). Applicants also envisioned that if EGFR-targeted PTX/PEG-HCCs could target OSC19-Luc cells, the measured bioluminescence would be lower than that with control and untargeted PTX/PEG-HCCs.
To confirm whether the increase in EGFR^+ cell killing was the result of the targeting effect from Cet/PTX/PEG-HCCs, the mixed cells of OSC-19-Luc (EGFR^+) and MCF-7 (EGFR^−) were pretreated with EGF before treatment. […] This supports the hypothesis that Cet/PTX/PEG-HCC acts primarily through an EGFR targeting effect.

Cetuximab: FDA-approved monoclonal antibody that selectively binds EGFRs
killing of OSC19 cells in co-culture with MCF-7 (bioluminescence): no effect on the cells
